{"source": "patent US9925231B2", "about": "“Formulations of guanylate cyclase C agonists and methods of use” (SYNERGY PHARMACEUTICALS, INC., priority 2010, dated 2018)", "assay": "Excipient compatibility: percent purity (HPLC) of SP-304 in binary mixtures stored at 40 C/75RH", "assay_type": "physicochemical", "conditions": "closed glass vial, 3 months", "text": "For solid excipients the binary mixtures were comprised of 9.1% or 50% excipient. Glass vials were stored at 40 C/75RH open or closed.", "data": [{"smiles": "CC(C)C[C@H](NC(=O)[C@@H]1CSSC[C@@H]2NC(=O)[C@H](CC(C)C)NC(=O)[C@H](CCC(=O)O)NC(=O)[C@@H](NC(=O)[C@H](CCC(=O)O)NC(=O)[C@H](CC(=O)O)NC(=O)[C@@H](N)CC(N)=O)CSSC[C@H](NC(=O)[C@H](C)NC(=O)[C@H](C(C)C)NC(=O)[C@H](CC(N)=O)NC(=O)[C@H](C(C)C)NC2=O)C(=O)N[C@@H]([C@@H](C)O)C(=O)NCC(=O)N1)C(=O)O", "note": "[SP-304, Asn^1-Asp^2-Glu^3-Cys^4-Glu^5-Leu^6-Cys^7-Val^8-Asn^9-Val^10-Ala^11-Cys^12-Thr^13-Gly^14-Cys^15-Leu^16]", "values": [{"measurement": "percent purity of SP-304 (HPLC), Closed 3 M", "result": 84.1, "unit": "%"}]}]}
